Values quoted from earlier work in patent publication US20020165286A1, “Dermal anti-inflammatory composition” (priority 2000, published 2002).

Conditions: topical administration; cited from earlier work

For `CCC[C@@H]1C[C@@H](C(=O)N[C@@H]([C@H]2O[C@H](SC)[C@H](O)[C@@H](O)[C@H]2O)[C@H](C)Cl)N(C)C1` [Clindamycin], the Potential irritant is given as “No”.
